Laboratory results as given in US20200131196A1 (Mount Tam Therapeutics, Inc., priority 2017, published 2020).

Key:
[1] = Pharmacokinetics in male Sprague Dawley rats (intravenous and oral); conditions: rat, in vivo
Protocol: Table 6 provides the pharmacokinetic parameters of Example (I) in male Sprague Dawley rats after a single bolus intravenous dose of 2 mg/kg. Table 7 provides the pharmacokinetic parameters of Example I in male Sprague Dawley rats after a single bolus oral dose of 10 mg/kg. In order to measure bioavailability in vivo, a compound may be administered to a test animal (e.g. mouse or rat) both intraperitoneally (i.p.) or intravenously (i.v.) and orally (p.o.) and blood samples are taken at regular intervals to examine how the plasma concentration of the drug varies over time. The time course of plasma concentration over time can be used to calculate the absolute bioavailability of the compound as a percentage using standard models. An example of a typical protocol is described below. […] These parameters are then analyzed by non-compartmental or compartmental methods to give a calculated percentage bioavailability, for an example of this type of method see Gallant-[…] et al, 2000 and […] et al, 1998, and references therein.

[2] = target: T1, TORC1 (Homo sapiens, UniProt P42345+P62942); experiment: TORC1 inhibition in PC3 cells (Western blot, phospho-rpS6); type: cell-based
T1 construct: endogenous in cells; host or cells: PC3 cells
Protocol: (§1) Equal amounts of protein were resolved by SDS-PAGE and transferred to nitrocellulose membrane using the Invitrogen Nu-Page system. […] The following day, blots were washed 3 times in TBST, incubated for 2 hr with secondary antibodies (donkey anti rabbit hrp conjugated), and finally washed an additional 3 times in TBST. ECL Prime (Amersham) was used to detect the proteins of interest and ImageJ was used to quantify blots.

[3] = target: T2, TORC2 (Homo sapiens, UniProt P42345+P62942); experiment: TORC2 inhibition in PC3 cells (Western blot, phospho Akt (S473)); type: cell-based
T2 construct: endogenous in cells; host or cells: PC3 cells
Protocol: as §1

Substance: C37-[(1S,2R,4S,5R)-5-hyhroxybicyclo[2.2.1]heptane] rapamycin [reference compound]
- oral bioavailability [1]: about one-half to about one-quarter lower than 0.47
- TORC1/TORC2 Selectivity [2]: 244x
- IC50 ([2]; Western blot): 0.045 nM
- IC50 [3]: 11 nM
